# How the values were obtained:
# Protein sequences, listed by entry. Tags and fused reporters are not part of them. Residues count along the entry.
# UniProt P06875, 27-235: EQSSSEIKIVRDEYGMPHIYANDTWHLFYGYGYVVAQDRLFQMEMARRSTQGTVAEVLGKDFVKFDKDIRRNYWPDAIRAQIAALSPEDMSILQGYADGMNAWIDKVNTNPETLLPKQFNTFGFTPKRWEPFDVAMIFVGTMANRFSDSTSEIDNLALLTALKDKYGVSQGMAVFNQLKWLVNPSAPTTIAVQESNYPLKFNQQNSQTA
# UniProt P06875, 290-846: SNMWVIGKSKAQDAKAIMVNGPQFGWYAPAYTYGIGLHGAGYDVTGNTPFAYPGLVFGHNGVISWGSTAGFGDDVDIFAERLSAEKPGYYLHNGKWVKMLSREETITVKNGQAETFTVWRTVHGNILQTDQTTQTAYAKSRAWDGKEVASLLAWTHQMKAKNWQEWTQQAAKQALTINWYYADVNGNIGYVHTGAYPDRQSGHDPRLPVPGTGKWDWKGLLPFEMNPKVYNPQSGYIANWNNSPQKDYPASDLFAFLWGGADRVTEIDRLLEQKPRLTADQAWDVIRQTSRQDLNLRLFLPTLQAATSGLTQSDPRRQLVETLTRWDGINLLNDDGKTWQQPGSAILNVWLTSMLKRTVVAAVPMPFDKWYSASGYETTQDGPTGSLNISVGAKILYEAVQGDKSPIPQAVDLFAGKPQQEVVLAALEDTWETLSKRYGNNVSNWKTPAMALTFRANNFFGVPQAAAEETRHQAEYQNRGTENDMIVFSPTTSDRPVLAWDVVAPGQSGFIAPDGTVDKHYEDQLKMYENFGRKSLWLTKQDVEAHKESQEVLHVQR
# Assay type in all cases: biochemical
# Soluble Pen G acylase = molecular target: T1, Soluble Pen G acylase (Escherichia coli, UniProt P06875); assay: Enzymatic amoxicillin synthesis with soluble Pen G acylase, Phox varied (Example 5)
# T1 construct: purchased Calbiochem; GBF 516329 (Calbiochem)
# Source text: (§1) V0 (Amox) is the initial velocity of Amox formation, and V0 (D-HPG) is the initial velocity of D-HPG formation, specified as μmoles/min/g enzyme, μmoles/min/ml reaction mixture, or nmoles/min/U (enzyme activity).
# (§2) The ratio X is defined as the number of moles of D-HPGA consumed per mole of Amox produced. For practical use this can be transformed to X=1+moles D-HPG/moles Amox, wherein "moles D-HPG" is the molar amount of D-HPG produced by hydrolysis of the acylating agent and the desired product and "moles Amox" is the molar amount of Amox present in the reaction mixture. Thus, if X is 1 this means that only the desired synthesis takes place, no hydrolysis. If X is 2, this means that D-HPG and Amox are formed in equal amounts (on a molar basis). If X is 3, this means that twice as much D-HPG as Amox is present in the reaction mixture (on a molar basis). The ratio X can be calculated at any time during reaction, but in the following examples X is calculated at the reaction stop time, which is defined as the time at which 90 % of the theoretical yield of Amox is present in the reaction mixture (based on the inserted amount of 6-APA). Square brackets are used to designate molar concentrations.
# (§3) In Examples 1-8 the following standard conditions for enzymatic amoxicillin synthesis have been used (see patent application No. WO 92/01061 for further details):
# (§4) During the reactions, the pH value of the reaction mixtures was kept constant by titration with 2M sulphuric acid.
# (§5) Representative samples of the reaction mixtures including solid constituents were taken at regular intervals during the reactions and analyzed by HPLC.
# Soluble Pen G acylase preparations were obtained from Calbiochem, art. No. 516329, ca. 1500 U/ml, and from GBF, ca. 300 U/ml. An enzyme dosage of 60 or 61 U/ml were employed in the two series.
# [1] = molecular target: immobilized penicillin G acylase from E. coli (Escherichia coli, UniProt P06875); assay: Enzymatic amoxicillin synthesis with immobilized Pen G acylase, Phox concentration varied (Example 1); settings: Exp E; [Phox] 61.7 μM; enzyme 8.6 U/ml
# Source text: as §1
# as §2, with “concentrations. […]” for “concentrations.”
# Representative samples of the reaction mixtures including solid constituents were taken at regular intervals during the reactions and analyzed by HPLC. […]
# [2] = molecular target: T2, agarose based penicillin G acylase immobilizate (Escherichia coli, UniProt P06875); assay: Enzymatic amoxicillin synthesis with varying enzyme amounts and constant Phox (Example 4); settings: [Phox] 31 μM
# T2 construct: processed alpha/beta heterodimer cut from one precursor (signal and spacer peptides removed)
# Source text: as §1, §2, §3, §4, §5
# An agarose based penicillin G acylase immobilizate was employed in the following experiments. The immobilizate which was kept in water was drained of excess water on a filter by applying suction for 1 min. Phox was added to a concentration of 31 μM in the reaction mixture.
# [3] = molecular target: T3, immobilized Pen G acylase preparations (Escherichia coli, UniProt P06875); assay: Enzymatic amoxicillin synthesis with various immobilized Pen G acylase preparations, Phox varied (Example 3); settings: Immobilizate a (E. coli, 8.6 U/ml)
# T3 construct: Recordati (preparation c); Boehringer Mannheim, experimental preparation (preparation d)
# Source text: as §2, §3, §4, §5
# (§6) Four different immobilized Pen G acylase preparations were used: a) immobilized penicillin G acylase from E. coli; enzyme dosing 8.6 U/ml; b) agarose based immobilizate, dosing 12.0 U/ml; c) immobilizate obtained from Recordati, dosing 12.0 U/ml; and d) immobilizate obtained from Boehringer Mannheim (experimental preparation), dosing 11.5 U/ml.
# (§7) Each immobilizate was tested under standard synthesis conditions in presence of Phox 2.6, 28.4 and 56.8 μM, respectively.
# [4] = system: immobilized Pen G acylase preparations; assay: as above
# Source text: as §2, §3, §4, §5, §6, §7
# [5] = Calbiochem enzyme 61 U/ml, [Phox] 2.6 μM
# [6] = Calbiochem enzyme 61 U/ml, [Phox] 56.8 μM
# [7] = Calbiochem enzyme 61 U/ml, [Phox] 142 μM
# [8] = GBF enzyme 60 U/ml, [Phox] 2.6 μM
# [9] = GBF enzyme 60 U/ml, [Phox] 56.8 μM
# [10] = GBF enzyme 60 U/ml, [Phox] 142 μM
compound,measurement,setting,value
"O=C(O)COc1ccccc1 [Phox, phenoxyacetic acid]",Initial velocity V0 (Amox),Soluble Pen G acylase; [5],52.2 nmoles/min/U
same,Initial velocity V0 (D-HPG),Soluble Pen G acylase; [5],33.4 nmoles/min/U
same,X at reaction stop time,Soluble Pen G acylase; [5],2.1
same,Initial velocity V0 (Amox),Soluble Pen G acylase; [6],11.0 nmoles/min/U
same,Initial velocity V0 (D-HPG),Soluble Pen G acylase; [6],6.8 nmoles/min/U
same,X at reaction stop time,Soluble Pen G acylase; [6],1.8
same,Initial velocity V0 (Amox),Soluble Pen G acylase; [7],5.5 nmoles/min/U
same,Initial velocity V0 (D-HPG),Soluble Pen G acylase; [7],ca. 4.4 nmoles/min/U
same,X at reaction stop time,Soluble Pen G acylase; [7],ca. 1.7
same,Initial velocity V0 (Amox),Soluble Pen G acylase; [8],61.1 nmoles/min/U
same,Initial velocity V0 (D-HPG),Soluble Pen G acylase; [8],50.0 nmoles/min/U
same,X at reaction stop time,Soluble Pen G acylase; [8],2.1
same,Initial velocity V0 (Amox),Soluble Pen G acylase; [9],21.7 nmoles/min/U
same,Initial velocity V0 (D-HPG),Soluble Pen G acylase; [9],14.4 nmoles/min/U
same,X at reaction stop time,Soluble Pen G acylase; [9],1.8
same,Initial velocity V0 (Amox),Soluble Pen G acylase; [10],6.3 nmoles/min/U
same,Initial velocity V0 (D-HPG),Soluble Pen G acylase; [10],3.6 nmoles/min/U
same,X at reaction stop time,Soluble Pen G acylase; [10],1.7
same,X at reaction stop time,[1],2.05
same,Initial velocity V0 (D-HPG),"[2]; Exp A, enzyme dosage 11.9 U/ml",0.60 µmol/min/mL
same,X at stop time,"[2]; Exp B, enzyme dosage 23.8 U/ml",1.8
same,Initial velocity V0 (Amox),"[2]; Exp C, enzyme dosage 47.5 U/ml",6.6 µmol/min/mL
same,Ratio X at reaction stop time,[3]; [Phox] 2.6 μM,2.9
same,Ratio X at reaction stop time,[3]; [Phox] 28.4 μM,2.35
same,Ratio X at reaction stop time,[3]; [Phox] 56.8 μM,2.05
same,Ratio X at reaction stop time,"[4]; Immobilizate b (agarose based, 12.0 U/ml), [Phox] 2.6 μM",2.4
same,Ratio X at reaction stop time,"[4]; Immobilizate b (agarose based, 12.0 U/ml), [Phox] 28.4 μM",1.85
same,Ratio X at reaction stop time,"[4]; Immobilizate b (agarose based, 12.0 U/ml), [Phox] 56.8 μM",1.7
same,Ratio X at reaction stop time,"[4]; Immobilizate c (Recordati, 12.0 U/ml), [Phox] 2.6 μM",2.3
same,Ratio X at reaction stop time,"[4]; Immobilizate c (Recordati, 12.0 U/ml), [Phox] 28.4 μM",1.9
same,Ratio X at reaction stop time,"[4]; Immobilizate c (Recordati, 12.0 U/ml), [Phox] 56.8 μM",1.95
same,Ratio X at reaction stop time,"[4]; Immobilizate d (Boehringer Mannheim experimental, 11.5 U/ml), [Phox] 2.6 μM",2.5
same,Ratio X at reaction stop time,"[4]; Immobilizate d (Boehringer Mannheim experimental, 11.5 U/ml), [Phox] 28.4 μM",1.95
same,Ratio X at reaction stop time,"[4]; Immobilizate d (Boehringer Mannheim experimental, 11.5 U/ml), [Phox] 56.8 μM",1.9

# Reference: patent US5753458A, “Acylation method for penicillins and cephalosporins” (Gist-Brocades B.V., priority 1994, dated 1998)
